From PubChem
A selection: hits, their analogues and other compounds. The true share with any hit is near 2.2%.
Nrf2 inh – Nrf2 pathway inhibition; A549 ARE-Fluc reporter, luciferase luminescence, 18-24 h; Potency, µM (top dose mostly 46 µM), for the others: at the top dose activity change, negative = inhibition, usual class: inhibitors; actives 2.1% (n = 360,000); AID 504444; note: potency is the fitted concentration of half-maximal effect; % is set by controls: 0 for no effect and ±100 for the full control effect; nearly all actives have a fitted effect of over 60% in size
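Quantitative HTS in A549 cells stably bearing an antioxidant response element-firefly luciferase construct. Inhibition of Nrf2-driven transcription was scored by luminescence after 18-24 h of compound exposure at 37 °C.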
GALK inh – blocks human galactokinase activity | AID 1868 | P51570 | Potency, µM (titrated, usually from 57.5 µM), without a hit: top-dose activity change, negative = inhibition, hits mostly inhibitors | actives 0.007% (n = 270,000) | Purified GALK, Kinase-Glo residual ATP luminescence; note: potency is the fitted concentration of half-maximal effect; % is set by controls: 0 for no effect and ±100 for the full control effect
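The enzyme phosphorylates galactose (100 uM) using ATP (35 uM); inhibition is detected as higher residual ATP, quantified by bioluminescence after 1 h reaction at room temperature, pH 8.0.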
miR-21 reporter – miR-21 reporter, rising signal; HeLa miR-21 FLuc reporter, luciferase, 48 h; Potency, µM (titrated, usually from 38.3 µM), for the others: at the top dose reporter change, positive = more light; 340,000 tested, under 10 active; AID 2288; active = well fitted rising curve with a large enough effect; inconclusive = small, poorly fitted or top-dose-only effect; inactive = no such curve, though single readings can be large or run the other way;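 also: % of control where 0% means no effect; miR-21 action dims this reporter so a rising signal means less miR-21 action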
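HeLa miR-21-FLuc reporter line, endogenous miR-21; 2000 cells/well in DMEM/10% FBS; compound titration up to ~40uM final, 48 h, 37 degree Celsius; luciferase detection reagent, 15 min lysis, CCD luminescence.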
Nrf2 activator – activators of Nrf2 (ARE) signaling | AREc32 ARE-luciferase reporter (MCF7-derived line), luminescence, 24 h | Potency, µM (top dose mostly 46.1 µM), for inactives: at the highest dose activation, hits mostly activators | actives 0.31% (n = 410,000); note: potency is the fitted concentration of half-maximal effect; % of control where 0% means no effect; nearly all actives have a fitted effect of over 65% in size
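Luminescent ARE reporter assay in AREc32_Fluc cells: overnight plating at 37 deg C, 24 hr compound incubation, Steady-Glo added, 30 min RT before reading.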
A549 tox-1 – kills or reduces viability of A549 cells in Nrf2 counter-screen | actives 0.16% (n = 390,000) | A549 ARE-Fluc cells, CellTiter-Fluor viability, 18-24 h | Potency, µM (doses to about 46 µM), for inactives: at the highest dose activity change, negative = cytotoxicity, actives largely listed as inhibitors; note: potency is the fitted concentration of half-maximal effect; % is set by controls: 0 for no effect and ±100 for the full control effect
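Cytotoxicity counterscreen: CellTiter-Fluor fluorescence was measured in A549 ARE_Fluc cells after 18-24 h of compound exposure in a concentration series. The subsequent BugLite luminescent read reports ARE-luciferase activity.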
PI4K2A inh – PI4K2A (human) kinase inhibition | purified PI4K2A, ADP-Glo luminescence, 1 h; active compounds read low | activity change, negative = inhibition, % at 76.9 µM | actives 0.13% (n = 420,000) | AID 1346378; in the data active = activity change below about -50%; inconclusive = mostly about -30% to -49%;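 note: -100% = wells without enzyme as full effect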
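ADP-Glo luminescence measured ADP generated by PI4K2A enzyme (4 ug/mL before mixing) with 1.2 mM PI substrate (pre-mix) and 300 microM ATP (pre-mix). Tris pH7.5 buffer with MgCl2, Triton X-100; 1 h reaction at ambient temperature.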
FLuc enzyme inh – blocks purified firefly luciferase in Nrf2 counterscreen | shares compounds with Nrf2 inh | purified firefly luciferase, luminescence inhibition | Potency, µM (series often up to 57.5 µM), inactives show at the top dose activity change, negative = inhibition, usual class: inhibitors | actives 4% (n = 1,400); note: potency is the fitted concentration of half-maximal effect; % is set by controls: 0 for no effect and ±100 for the full control effect; nearly all actives have a fitted effect of over 65% in size
A549 tox-2 – A549 cytotoxicity, Nrf2 inhibitor counterscreen; AID 720523; Potency, µM (top dose mostly 46.1 µM), for the others: at the top dose activity change, negative = cytotoxicity, hits mostly inhibitors; A549 ARE-Fluc cells, cytotoxicity counterscreen; actives 2% (n = 1,400); shares compounds with Nrf2 inh;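 note: potency is the fitted concentration of half-maximal effect; cells exposed to compounds for 18 to 24 hours; % is set by controls: 0 for no effect and ±100 for the full control effect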
Nrf2 ARE inh – confirmation of Nrf2 inhibitors in A549 ARE reporter cells | shares compounds with Nrf2 inh | A549 ARE-firefly luciferase reporter, luminescence | Potency, µM (highest dose often 46.1 µM), inactives show at the top dose activity change, negative = inhibition, actives largely listed as inhibitors | actives 74% (n = 1,400) | AID 720524; note: potency is the fitted concentration of half-maximal effect; % is set by controls: 0 for no effect and ±100 for the full control effect; nearly all actives have a fitted effect of over 65% in size
An asterisk follows results filed as active; ? = inconclusive; · = no result given. Unless noted, calls come from the whole dose curve; as a rule, active = well fitted curve in the direction sought with a large enough effect; inconclusive = small, poorly fitted or top-dose-only effect, or another doubt; inactive = no such curve, though single readings can be large; an effect the other way counts as inactive or inconclusive.

SMILES	Nrf2 inh	GALK inh	miR-21 reporter	Nrf2 activator	A549 tox-1	PI4K2A inh	FLuc enzyme inh	A549 tox-2	Nrf2 ARE inh
Cc1ccccc1CN1CCCCC(NC(=O)Nc2ccccc2-c2ccccc2)C1=O (stereo unspecified)	·	·	·	·	·	2	·	·	·
CC(C)(C)c1ccc(C(=O)N2CCCCCC2=O)cc1	9.2µM*	0%	?	-2%	-8%	-11	?	-11%	3.7µM*
O=C1CCCCCN1C(=O)c1ccccc1	-3%	·	·	-1%	-2%	0	·	·	·
Cc1ccc(S(=O)(=O)N(C)Cc2ccc(C(=O)N/N=C/c3ccc(OC(F)F)cc3)cc2)cc1	5.8µM*	0%	0%	2%	-6%	-3	3%	-10%	6.5µM*
COc1ccc(/C=N/NS(=O)(=O)c2ccccc2)cc1OC(=O)c1ccc(C)cc1	9.2µM*	0%	-4%	-3%	-9%	2	1%	-1%	7.3µM*
COc1ccc(/C=N/NS(=O)(=O)c2ccc(C)cc2)cc1OC(=O)c1ccccc1	·	0%	-6%	0%	12%	-1	·	·	·
CCOC(=O)CC[C@@]1(C(=O)OCC)C[C@@H](CC(=O)NCCCN2CCCC2=O)C(=O)N2CCCC=C21	·	·	·	·	·	-5	·	·	·
Cc1ccc2c(c1)S/C(=C/c1ccc[n+](CCO)c1)N2C	1.2µM*	-2%	?	5%	-17%	0	2%	-21%	5.8µM*
CC(=O)N1c2ccc(C)cc2Sc2c1ccc1ccccc21	-4%	·	·	7%	4%	0	·	·	·
CCOc1cc(/C=C(\C#N)C(=O)Nc2ccccc2C(=O)O)ccc1OC(=O)c1ccc(C)cc1	2.1µM*	-17%	-4%	5%	-2%	0	?	-1%	4.6µM*
COc1ccc(/C=C(/C#N)C(=O)Nc2ccccc2C)cc1C(=O)O	-15%	0%	-2%	3%	0%	-9	·	·	·
COc1ccc(NC(=O)COC(=O)c2cc(OC)c(OC)cc2NC(=O)c2ccco2)cc1OC	5.8µM*	2%	-1%	-1%	·	7	-26%	-15%	-23%
CC(C)CNC(=O)CC1Oc2ccccc2NC1=O (stereo unspecified)	·	·	·	·	·	-2	·	·	·
O=C(Nc1cccc(S(=O)(=O)Nc2ccc(Cl)cc2)c1)c1ccc(Cl)nc1	3.3µM*	-1%	?	0%	?	-2	-16%	-22%	4.1µM*
COc1ccc(NS(=O)(=O)c2cccc(NC(=O)c3ccc(Cl)nc3)c2)cc1	0.58µM*	0%	?	0%	?	2	0%	-5%	1.6µM*
COc1cccc(S(=O)(=O)Nc2ccc(C(=O)Nc3ccncc3)cc2)c1	?	4%	4%	2%	-3%	2	·	·	·
CCOC(=O)N1CCN(C(=O)C[C@H]2C[C@@]3(C(=O)OC)C(=C[C@H](C(C)C)O[C@@H]3C3CC3)N(CCC3=CCCCC3)C2=O)CC1	·	·	·	·	·	-2	·	·	·
O=c1c2cnn(-c3ccccc3)c2nc(-c2ccco2)n1-c1ccccc1	9.2µM*	0%	19%	3%	-21%	2	-22%	-12%	18µM*
COc1cccc(-n2c(-c3ccco3)nc3c(cnn3-c3ccc(Cl)cc3)c2=O)c1	?	·	-6%	1%	2%	-3	·	·	·
Cc1nn(Cc2ccc(Cl)cc2)c(C)c1NC(=O)c1cc(-c2ccc3c(c2)OCO3)on1	4.1µM*	0%	19%	6%	?	-4	-2%	-10%	9.2µM*

Some of these compounds in order of formula weight, highest first.
SMILES	Nrf2 inh	GALK inh	miR-21 reporter	Nrf2 activator	A549 tox-1	PI4K2A inh	FLuc enzyme inh	A549 tox-2	Nrf2 ARE inh
CCOC(=O)N1CCN(C(=O)C[C@H]2C[C@@]3(C(=O)OC)C(=C[C@H](C(C)C)O[C@@H]3C3CC3)N(CCC3=CCCCC3)C2=O)CC1	·	·	·	·	·	-2	·	·	·
Cc1ccc(S(=O)(=O)N(C)Cc2ccc(C(=O)N/N=C/c3ccc(OC(F)F)cc3)cc2)cc1	5.8µM*	0%	0%	2%	-6%	-3	3%	-10%	6.5µM*
COc1ccc(/C=N/NS(=O)(=O)c2ccccc2)cc1OC(=O)c1ccc(C)cc1	9.2µM*	0%	-4%	-3%	-9%	2	1%	-1%	7.3µM*
COc1cccc(-n2c(-c3ccco3)nc3c(cnn3-c3ccc(Cl)cc3)c2=O)c1	?	·	-6%	1%	2%	-3	·	·	·
CC(=O)N1c2ccc(C)cc2Sc2c1ccc1ccccc21	-4%	·	·	7%	4%	0	·	·	·

The listing continues.
SMILES	Nrf2 inh	GALK inh	miR-21 reporter	Nrf2 activator	A549 tox-1	PI4K2A inh	FLuc enzyme inh	A549 tox-2	Nrf2 ARE inh
COc1ccc(S(=O)(=O)N2CCN(C(=O)CSc3nc4ccccc4nc3N3CCCCC3)CC2)cc1	·	·	·	·	·	5	·	·	·
N#Cc1cc(-c2ccccc2)[nH]c1-c1nccc2ccccc12	9.2µM*	-2%	25%	0%	-14%	-4	-12%	-4%	?
O=C(CN1C(=O)c2ccccc2S1(=O)=O)c1ccccc1Cl	·	4%	?	·	·	·	·	·	·
CCn1c(C)cc(C(=O)CN2C(=O)c3ccccc3S2(=O)=O)c1C	3.7µM*	·	·	-2%	-3%	4	8.5µM*	3%	·
Cc1cc(C(=O)CN2C(=O)c3ccccc3S2(=O)=O)c(C)n1C(C)C	2.9µM*	·	·	-3%	-1%	-2	6.7µM*	7%	8.2µM*
O=C(CN1C(=O)c2ccccc2S1(=O)=O)c1ccccc1	·	0%	29%	-3%	6%	7	·	·	·
O=C(Nc1ccc(Cl)cc1Cl)O[C@@H]1CC[C@@]23CCCN2C(=O)CCC[C@H]3C1	·	·	·	·	·	-3	·	·	·
COC(=O)[C@]12C[C@H](CC(=O)NCCCN3CCCC3=O)C(=O)N(CCC3=CCCCC3)C1=C[C@H](C(C)C)O[C@@H]2C1CC1	·	·	·	·	·	5	·	·	·
COc1ccc(/C=C/c2ccccn2)cc1	·	·	·	·	·	·	-2%	-30%	2.3µM*
C(=C\c1ccccn1)/c1ccccn1	26%	3%	-47%	5%	-3%	1	·	·	·
COc1ccc(CN(C)C(=O)C2CCCN(c3nc4ccccc4o3)C2)cc1 (stereo unspecified)	·	·	·	·	·	5	·	·	·
CC1CCN(C(=O)CSc2nc3c(cnn3-c3ccccc3)c(=O)[nH]2)CC1	5.8µM*	1%	0%	0%	-14%	-2	3%	-23%	-26%
Cc1ccnc2c1ccc1cccnc12	?	·	·	18%	?	2	-17%	?	·
CCC(c1nnnn1Cc1ccccc1)N(Cc1ccccc1)Cc1cc2cc(C)ccc2[nH]c1=O (stereo unspecified)	4.1µM*	·	·	·	?	·	0%	-28%	?
CC(=O)c1c(C)[nH]c(C(=O)OCC(=O)NCc2ccc(Cl)cc2)c1C	8.2µM*	·	·	6%	-14%	5	2%	0%	13µM*
CCOC(=O)c1[nH]c(C)c(C(=O)OCc2ccccc2F)c1C	-16%	1%	16%	0%	?	-5	·	·	·
CC(=O)c1c(C)[nH]c(C(=O)OCc2c(F)cccc2Cl)c1C	5.2µM*	-2%	-8%	0%	-12%	1	-1%	3%	15µM*
